Laboratory results as given in publication PMC4427575, “Functional screening system for yeast-secreted peptides acting on G-protein coupled receptors” (AMB Express, 2015).

By UniProt entry, the sequences of proteins in these tests, tags left out. Residues count along the entry.
UniProt P43220, 24-463: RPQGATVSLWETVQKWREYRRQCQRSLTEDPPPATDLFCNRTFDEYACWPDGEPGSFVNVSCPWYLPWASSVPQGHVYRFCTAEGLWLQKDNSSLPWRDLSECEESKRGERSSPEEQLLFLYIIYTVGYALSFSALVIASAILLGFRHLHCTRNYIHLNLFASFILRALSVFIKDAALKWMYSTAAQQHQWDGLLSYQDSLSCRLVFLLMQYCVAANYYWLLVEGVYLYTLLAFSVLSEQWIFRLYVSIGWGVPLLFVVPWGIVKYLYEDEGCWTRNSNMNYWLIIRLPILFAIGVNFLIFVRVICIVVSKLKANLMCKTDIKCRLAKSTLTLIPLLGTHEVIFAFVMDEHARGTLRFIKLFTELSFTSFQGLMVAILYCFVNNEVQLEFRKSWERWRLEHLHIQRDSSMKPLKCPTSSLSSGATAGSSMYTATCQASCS

Target: T1, human GLP1R (Homo sapiens, UniProt P43220)
T1 construct: expressed in transfected cells
Assay: GLP1R activation assay using GLP1R-CHO, synthetic agonists (cAMP-screen)
Type: cell-based
Conditions: ratio in words

CC[C@H](C)[C@H](NC(=O)[C@H](Cc1ccccc1)NC(=O)[C@H](CCC(=O)O)NC(=O)[C@H](CCCCN)NC(=O)[C@H](C)NC(=O)[C@H](C)NC(=O)[C@H](CCC(N)=O)NC(=O)CNC(=O)[C@H](CCC(=O)O)NC(=O)[C@H](CC(C)C)NC(=O)[C@H](Cc1ccc(O)cc1)NC(=O)[C@H](CO)NC(=O)[C@H](CO)NC(=O)[C@@H](NC(=O)[C@H](CC(=O)O)NC(=O)[C@H](CO)NC(=O)[C@@H](NC(=O)[C@H](Cc1ccccc1)NC(=O)[C@@H](NC(=O)CNC(=O)[C@H](CCC(=O)O)NC(=O)[C@H](CO)NC(=O)[C@@H](N)Cc1c[nH]cn1)[C@@H](C)O)[C@@H](C)O)C(C)C)C(=O)N[C@@H](C)C(=O)N[C@@H](Cc1c[nH]c2ccccc12)C(=O)N[C@@H](CC(C)C)C(=O)N[C@H](C(=O)N[C@@H](CCCCN)C(=O)NCC(=O)N[C@@H](CCCNC(=N)N)C(=O)O)C(C)C [S^2-GLP1]
EC50 relative to the Ex4 value: one sixteenth
